{"source": "patent US10933169B2", "about": "“Bone morphogenetic protein pathway activation, compositions for ossification, and methods related thereto” (Emory University, priority 2012, dated 2021)", "system": "BMP-induced ALP activity in C2C12 cells", "experiment": "BMP-induced alkaline phosphatase (ALP) potentiation assay in C2C12 cells", "conditions": "sub-optimal doses of BMP in the presence or absence of exogenously added noggin, relative to BMP alone control"}
{"compound": "O=C(O)CNc1ccc([As](=O)(O)O)cc1", "values": [{"measurement": "Fold-increase of BMP-induced ALP (over BMP alone control)", "value": 2.5, "unit": "fold"}]}
